Measured affinities in a library of Ab-14 heavy chain variants

Values reported by Li et al. 2023, doi:10.1038/s41467-023-39022-2 (FLAb copy).

The target is the same throughout: PDVDLGDISGINAS, from the HR2 region of SARS-CoV-2 spike.

Ab-14 is the parent antibody, in scFv form: VH, then a 15-residue (Gly4Ser)3 linker, then VL. The light chain is unchanged in all variants.
VH: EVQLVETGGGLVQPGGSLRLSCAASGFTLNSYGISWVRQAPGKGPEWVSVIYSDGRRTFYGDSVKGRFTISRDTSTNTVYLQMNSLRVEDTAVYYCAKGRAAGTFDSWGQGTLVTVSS
VL: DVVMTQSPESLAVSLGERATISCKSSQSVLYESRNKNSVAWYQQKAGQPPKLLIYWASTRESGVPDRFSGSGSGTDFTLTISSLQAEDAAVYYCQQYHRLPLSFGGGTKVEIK

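The starting antibody came from a phage panning campaign against this peptide. These sequences belong to a second round, designed from the earlier measurements on random variants of the parent. Their group label is 14H_En_Gen (En: ensemble of fine-tuned language models; Gen: genetic algorithm). The assay is AlphaSeq: two haploid yeast populations carry antibody and antigen on their surface. Pairs that bind mate more often; barcode pairs of the diploids are counted by sequencing. The ratio of observed to expected reads was calibrated, replicate by replicate, on BCL2-family standards whose Kd was known from biolayer interferometry. The assay was run in six technical replicates.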

Variants are written as CDR1, CDR2 and CDR3 of the heavy chain (limits as in the source). Parent: GFTLNSYGIS, VIYSDGRRTFYGDSVK, GRAAGTFDS. Scale: log10 of Kd in nM, estimated from mating counts; low values are strong binders. The mean shown is taken over the replicates in which the pair was detected. Where no diploid with the target was found in that replicate, the entry reads "nd": below detection, most likely a poor binder, though not proof of it. The authors averaged sequences with at least three values out of six and counted those with two or fewer as poor binders. Values of this round are not directly comparable with the first-round values of the same sequences. As a blank, each scFv also met three strains without target: over all heavy chain designs, 1% of these pairings were detected, typically at 2.08 and seldom below 0.84. Also given: how often the same scFv was detected with the empty control strains, with their mean in brackets. Of ten entries with the parent sequence, four were seen in most replicates (averages 0.34 to 2.37), three in one and three in none, so single entries are noisy.

CDR-H1 | CDR-H2 | CDR-H3 | log10 Kd, replicates | mean, log10 nM | empty controls
GFDLNEYGIS | VIYADGMRTAYSDSVK | GNQAGTFDQ | 0.42 / 0.57 / 0.50 / 0.30 / 0.64 / 0.40 | 0.47 | 0 of 18
GFDLDEYGIS | VIYADGMRKAYADSVK | GNEAGTFDV | -0.30 / -0.48 / -0.38 / -0.56 / -0.53 / -0.39 | -0.44 | 1 of 18 (0.57)
GFDLNEYGIS | VIYADGMRTAYADKVK | GEVAGTFDI | -0.40 / -0.85 / -0.93 / -0.71 / -1.10 / -0.74 | -0.79 | 0 of 18
GFDLNEYGIS | VIYADGQRTAYSDDVK | GNVAGTFDV | -0.73 / -0.62 / -0.12 / -0.98 / -0.78 / -0.16 | -0.57 | 0 of 18
GFDLNEYGIS | VIYADGVRQAYADSVK | GTNAGTFDV | -0.57 / -0.57 / -0.61 / -0.74 / -0.78 / 0.00 | -0.55 | 0 of 18
GFDLNEYGIS | VIYADGMRTFYADSVK | GENAGTFDQ | -0.62 / 0.09 / -0.05 / -0.52 / -0.40 / -0.14 | -0.27 | 0 of 18
GFDLNEYGIS | VIYADGMRTAYADKVK | GENAGTFDI | 0.04 / 0.02 / -0.19 / -0.27 / -0.21 / -0.02 | -0.11 | 0 of 18
GFDLNEYGIS | VIYADGMRKAYADSVK | GNQAGTFDL | -0.13 / -0.59 / -0.49 / -1.26 / -0.64 / -0.28 | -0.57 | 0 of 18
GFDLNEYGIS | VIYADGMRTAYADNVK | GETAGTFDV | -0.41 / -0.50 / -0.37 / -0.59 / 0.22 / -0.21 | -0.31 | 0 of 18
GFDLDEYGIS | VIYADGMRTAYSDSVK | GNQAGTFDL | -0.17 / 0.01 / 0.00 / -0.78 / 0.15 / -0.25 | -0.18 | 0 of 18
GFDLNEYGIS | VIYADGRRTAYADDVK | GSNAGTFDI | -0.01 / -0.31 / -0.44 / -0.33 / -0.37 / -0.20 | -0.27 | 0 of 18
GFDLNEYGIS | VIYADGMRTAYADDVK | GNEAGTFDM | -0.47 / -0.60 / -0.50 / -0.83 / -0.63 / -0.62 | -0.61 | 0 of 18
GFDLDEYGIS | VIYADGMRTFYADDVK | GNVAGTFDL | -0.40 / -0.59 / -0.43 / -0.57 / -0.46 / -0.42 | -0.48 | 1 of 18 (2.38)
GFDLNEYGIS | VIYADGQRTAYADSVK | GGVAGTFDV | -0.44 / -0.51 / -0.52 / -0.67 / -0.71 / -0.52 | -0.56 | 0 of 18
GFDLEEYGIS | VIYADGVRTAYADSVK | GNNAGTFDV | -0.41 / -0.68 / -0.52 / -0.49 / -0.32 / -0.42 | -0.47 | 0 of 18
GFDLNEYGIS | VIYADGVRTAYSDSVK | GGNAGTFDV | -0.37 / -0.83 / -0.64 / -0.68 / -0.65 / -0.48 | -0.61 | 1 of 18 (2.52)
GFDLNEYGIS | VIYADGQRSAYADSVK | GENAGTFDV | -0.55 / -0.48 / -0.44 / 0.01 / -0.13 / -0.60 | -0.36 | 1 of 18 (0.90)
GFDLNEYGIS | VIYADGKRTAYADNVK | GETAGTFDI | 0.27 / -0.71 / -1.15 / -1.08 / -0.46 / -0.91 | -0.67 | 0 of 18
GFDLDEYGIS | VIYADGMRTAYIDSVK | GETAGTFDV | -0.56 / -0.49 / -0.54 / -0.94 / -0.83 / -0.92 | -0.71 | 0 of 18
GFDLNEYGIS | VIYADGRRTAYSDSVK | GTNAGTFDI | -0.61 / -0.58 / -1.16 / -1.03 / -0.86 / -1.00 | -0.87 | 0 of 18
GFDLNEYGIS | VIYADGIRTAYSDSVK | GENAGTFDV | -0.22 / -0.18 / -0.15 / -0.23 / -0.40 / 0.34 | -0.14 | 0 of 18
GFDLNEYGIS | VIYADGVRTYYADSVK | GQNAGTFDI | -0.74 / -0.56 / -0.65 / -0.70 / -0.78 / -0.56 | -0.67 | 0 of 18
GFDLDEYGIS | VIYADGSRTAYVDSVK | GNVAGTFDV | -0.53 / -0.72 / -0.16 / -0.75 / -0.91 / 2.03 | -0.17 | 0 of 18
GFDLNEYGIS | VIYADGKRTAYSDSVK | GENAGTFDV | 0.24 / 0.34 / 0.46 / 0.06 / 0.10 / 0.36 | 0.26 | 0 of 18
GFDLNEYGIS | VIYADGQRTYYADSVK | GNTAGTFDV | -0.08 / -0.55 / -0.60 / -0.30 / -0.54 / -0.23 | -0.38 | 0 of 18
GFDLNEYGIS | VIYADGRRTAYSDSVK | GNNAGTFDV | -0.17 / -0.66 / -0.52 / -1.12 / -0.51 / -0.55 | -0.59 | 0 of 18
GFDLNEYGIS | VIYADGMRTQYADSVK | GENAGTFDV | 0.35 / -0.12 / 0.16 / -0.05 / -0.19 / 0.34 | 0.08 | 0 of 18
GFDLNEYGIS | VIYADGLRTAYADSVK | GNVAGTFDL | -0.91 / -0.49 / -0.97 / -1.07 / -0.75 / -0.65 | -0.81 | 1 of 18 (0.74)
GFDLNEYGIS | VIYADGMRTAYADNVK | GSVAGTFDV | -0.63 / -0.58 / -0.86 / -0.73 / -0.67 / -0.59 | -0.68 | 0 of 18
GFDLEEYGIS | VIYADGRRTAYADSVK | GNVAGTFDT | -0.28 / -0.13 / 0.01 / -0.06 / 0.02 / -0.27 | -0.12 | 0 of 18
GFDLDEYGIS | VIYADGMRTAYADSVK | GNQAGTFDT | -0.24 / -0.60 / -0.64 / -0.85 / -0.25 / -0.45 | -0.51 | 0 of 18
GFDLNEYGIS | VIYADGMRTAYADDVK | GNHAGTFDV | -0.50 / -0.93 / -0.68 / -1.15 / -0.78 / -0.88 | -0.82 | 1 of 18 (1.55)
GFDLNEYGIS | VIYADGMRTAYAESVK | GEVAGTFDV | -0.27 / -0.47 / -0.47 / -0.48 / -0.53 / -0.33 | -0.42 | 0 of 18
GFDLDEYGIS | VIYADGQRTAYADSVK | GTVAGTFDV | nd / -0.82 / nd / nd / nd / 0.22 | -0.30 | 0 of 18
GFDLNEYGIS | VIYADGKRTAYVDSVK | GNNAGTFDI | -0.87 / 0.60 / -0.26 / -1.30 / -1.02 / -0.90 | -0.63 | 0 of 18
GFDLNEYGIS | VIYADGQRTAYADDVK | GNVAGTFDM | 0.27 / 0.79 / 0.04 / 0.83 / 0.24 / 0.14 | 0.39 | 0 of 18
GFDLDEYGIS | VIYADGMRTAYSDDVK | GNVAGTFDQ | 0.86 / -0.16 / 1.18 / 0.00 / -0.47 / 0.16 | 0.26 | 1 of 18 (2.38)
GFDLNEYGIS | VIYADGKRTAYADDVK | GNEAGTFDV | 0.25 / 0.34 / -0.01 / 0.26 / 0.20 / 0.33 | 0.23 | 0 of 18
GFDLNEYGIS | VIYADGVRTAYADDVK | GGNAGTFDL | nd / nd / nd / nd / nd / nd | nd | 0 of 18
GFDLNEYGIS | VIYADGRRTAYANSVK | GEVAGTFDV | 0.31 / 0.20 / 0.46 / -0.77 / -0.22 / -0.32 | -0.06 | 0 of 18
GFDLNEYGIS | VIYADGVRTYYADSVK | GNQAGTFDV | 0.61 / 0.25 / -0.05 / 0.18 / 0.14 / 0.27 | 0.23 | 0 of 18

Excerpt, the first 5 entries:

| CDR-H1 | CDR-H2 | CDR-H3 | log10 Kd, replicates | mean, log10 nM | empty controls |
|---|---|---|---|---|---|
| GFDLNEYGIS | VIYADGMRTAYSDSVK | GNQAGTFDQ | 0.42 / 0.57 / 0.50 / 0.30 / 0.64 / 0.40 | 0.47 | 0 of 18 |
| GFDLDEYGIS | VIYADGMRKAYADSVK | GNEAGTFDV | -0.30 / -0.48 / -0.38 / -0.56 / -0.53 / -0.39 | -0.44 | 1 of 18 (0.57) |
| GFDLNEYGIS | VIYADGMRTAYADKVK | GEVAGTFDI | -0.40 / -0.85 / -0.93 / -0.71 / -1.10 / -0.74 | -0.79 | 0 of 18 |
| GFDLNEYGIS | VIYADGQRTAYSDDVK | GNVAGTFDV | -0.73 / -0.62 / -0.12 / -0.98 / -0.78 / -0.16 | -0.57 | 0 of 18 |
| GFDLNEYGIS | VIYADGVRQAYADSVK | GTNAGTFDV | -0.57 / -0.57 / -0.61 / -0.74 / -0.78 / 0.00 | -0.55 | 0 of 18 |